Results reported in patent US8557784B2, “Glycyrrhizinates of morphinan derivatives” (Standard Chem. & Pharm. Co., Ltd., priority 2011, dated 2013).
Structures can show the parent of a compound that is named as a salt.

What was measured:
[1] = in words; cited from earlier work
[2] = Solubility in water: water added by degrees until 0.1 g of compound fully dissolves; conditions: 28° C.

Row | SMILES | Solubility in alcohol [1] | Solubility in water [1] | Water quantity for dissolving 0.1 g solute [2] [mL]
1 | O=C(O)C(O)C(O)C(=O)O.Oc1ccc2c(c1)[C@@]13CCCC[C@@]1(O)[C@@H](C2)N(CC1CCC1)CC3 [Butorphanol tartrate] | insoluble in alcohol | sparingly soluble in water | –
2 | COc1ccc2c(c1)[C@]13CCCC[C@@H]1[C@H](C2)N(C)CC3 [Dextromethorphan hydrobromide] | – | – | 4
